ChEMBL document CHEMBL5375952, “Discovery of Novel 8-Hydroxyquinoline Derivatives with Potent In Vitro and In Vivo Antifungal Activity” (J Med Chem, 2023)

Sequences of proteins named here, by UniProt entry; tags and fusion partners are left off. A change or cut given only in a name is not applied to a line headed by its entry.
UniProt Q12809: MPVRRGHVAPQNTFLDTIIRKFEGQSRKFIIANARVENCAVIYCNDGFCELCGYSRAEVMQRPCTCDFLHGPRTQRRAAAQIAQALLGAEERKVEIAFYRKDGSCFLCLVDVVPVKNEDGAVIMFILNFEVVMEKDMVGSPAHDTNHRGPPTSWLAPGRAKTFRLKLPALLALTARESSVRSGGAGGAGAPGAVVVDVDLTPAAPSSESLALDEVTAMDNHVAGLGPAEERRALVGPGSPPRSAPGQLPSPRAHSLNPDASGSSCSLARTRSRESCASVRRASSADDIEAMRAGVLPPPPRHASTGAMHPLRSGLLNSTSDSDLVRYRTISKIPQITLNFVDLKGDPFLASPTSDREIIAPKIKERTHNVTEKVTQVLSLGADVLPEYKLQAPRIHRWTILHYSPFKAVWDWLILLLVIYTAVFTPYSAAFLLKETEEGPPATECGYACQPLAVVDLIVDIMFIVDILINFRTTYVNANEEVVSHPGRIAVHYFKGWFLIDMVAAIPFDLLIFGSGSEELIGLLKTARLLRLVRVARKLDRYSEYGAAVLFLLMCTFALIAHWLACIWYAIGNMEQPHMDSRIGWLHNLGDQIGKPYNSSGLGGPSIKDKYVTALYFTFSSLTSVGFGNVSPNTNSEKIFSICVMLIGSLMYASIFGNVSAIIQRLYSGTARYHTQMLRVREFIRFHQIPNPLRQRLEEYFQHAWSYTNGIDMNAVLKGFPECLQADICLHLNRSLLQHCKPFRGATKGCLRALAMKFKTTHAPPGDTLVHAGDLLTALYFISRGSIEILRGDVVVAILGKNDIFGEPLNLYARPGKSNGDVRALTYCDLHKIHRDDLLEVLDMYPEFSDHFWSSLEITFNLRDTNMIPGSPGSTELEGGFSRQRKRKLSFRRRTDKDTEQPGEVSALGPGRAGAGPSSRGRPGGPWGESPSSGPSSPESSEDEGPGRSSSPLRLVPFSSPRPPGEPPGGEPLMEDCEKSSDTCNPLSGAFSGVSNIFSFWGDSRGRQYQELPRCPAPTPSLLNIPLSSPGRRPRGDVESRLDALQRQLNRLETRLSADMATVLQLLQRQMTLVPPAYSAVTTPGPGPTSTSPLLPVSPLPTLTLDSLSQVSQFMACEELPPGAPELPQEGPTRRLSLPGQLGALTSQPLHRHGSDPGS

Biological target: Voltage-gated inwardly rectifying potassium channel KCNH2 (Homo sapiens, UniProt Q12809)
Assay: Inhibition of hERG measured for 120 secs by electrophysiological method
Type: toxicity
Settings: 2 min, time 120 sec

Question: With `COc1cc(N)c(Cl)cc1C(=O)NC1CCN(CCCOc2ccc(F)cc2)CC1OC` (stereo unspecified) [CISAPRIDE] as the compound, how does the INH read?
Answer: 0.015 µM
